# Measured values published in PMC8622623, “Histamine H3 Receptor Ligands—KSK-59 and KSK-73—Reduce Body Weight Gain in a Rat Model of Excessive Eating” (Pharmaceuticals, 2021).
# Protein sequences, listed by entry. Tags and fused reporters are not part of them. Lines headed by an entry give the natural chain unless they say otherwise; changes in a name come on top.
# UniProt Q9Y5N1: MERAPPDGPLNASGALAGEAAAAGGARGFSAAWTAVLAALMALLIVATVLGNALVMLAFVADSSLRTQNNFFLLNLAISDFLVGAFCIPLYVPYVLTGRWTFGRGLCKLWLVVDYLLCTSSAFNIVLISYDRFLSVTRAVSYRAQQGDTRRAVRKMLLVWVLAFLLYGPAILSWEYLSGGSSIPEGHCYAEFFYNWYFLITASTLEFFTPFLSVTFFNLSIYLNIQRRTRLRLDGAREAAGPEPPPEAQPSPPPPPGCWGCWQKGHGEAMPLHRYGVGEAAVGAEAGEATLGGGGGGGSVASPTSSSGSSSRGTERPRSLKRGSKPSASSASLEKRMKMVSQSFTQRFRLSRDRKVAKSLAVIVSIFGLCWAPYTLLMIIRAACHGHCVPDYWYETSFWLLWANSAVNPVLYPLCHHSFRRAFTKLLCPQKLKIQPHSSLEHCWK
# Target: T1, H3 histamine receptor (Homo sapiens, UniProt Q9Y5N1)
# T1 construct: host or cells: recombinant frozen ready-to-use cells
# Assay: Aequoscreen intrinsic activity assay (antagonist dose-response)
# Type: cell-based
# Procedure: Intrinsic activity studies were performed by two methods, Aequoscreen and Lance cAMP assays according to the manufacturer of the ready to use cells with stable expression of the H3 histamine receptor (Perkin Elmer, Waltham, MA, USA).
# The Aequoscreen technology uses the recombinant cell lines with stable co-expression of apoaequorin and a GPCR as a system to detect activation of the receptor, following addition of an agonist, via the measurement of light emission. For measurement cells (frozen, ready to use) were thawed and resuspended in 10 mL of an assay buffer containing 5 μM of coelenterazine h. Then cells suspension was placed in a 10 mL Falcon tube, fixed onto a rotating wheel and incubated overnight at RT° in the dark. Cells were diluted with assay buffer to 5000 cells/20 µL. Agonistic ligands 2× (50 μL/well), diluted in assay buffer, were prepared in 1/2 area white polystyrene plates, and the 50 μL of cell suspension was dispensed on the ligands using the injector. The light emission was recorded for 20 s. Cells were incubated with antagonist for 15 min at RT°. Then 50 µL of agonist (3 × EC80 final concentration) was injected onto the mixture of cells and antagonist and the light emission was recorded for 20 s.
smiles,measurement,value
"NC(=NCc1ccc(Cl)cc1)SCCCc1cnc[nH]1 [Clobenpropit, reference compound]",IC50,1.2 ± 0.3 nM
